Tested on: Listeria monocytogenes
Assay: Challenge test on meat model (agar-salami)
Type: cell-based
Conditions: peptide at 256 μg/ml

In the case of CC[C@H](C)[C@H](NC(=O)CNC(=O)CNC(=O)[C@H](CCCCN)NC(=O)[C@H](CCCNC(=N)N)NC(=O)[C@H](CCCNC(=N)N)NC(=O)[C@H](CS)NC(=O)[C@H](CCCNC(=N)N)NC(=O)[C@@H](NC(=O)[C@H](CCCNC(=N)N)NC(=O)[C@H](CCCNC(=N)N)NC(=O)[C@H](Cc1ccc(O)cc1)NC(=O)[C@@H](NC(=O)[C@@H](N)C(C)C)C(C)C)C(C)C)C(=O)N[C@@H](CCCNC(=N)N)C(=O)N[C@@H](Cc1ccccc1)C(=O)N[C@@H](C)C(=O)N[C@H](C(=O)N[C@@H](CC(N)=O)C(=O)NCC(=O)O)[C@@H](C)CC [Seq ID no1], the “L. monocytogenes level whose growth is inhibited” value is reported as 10^2 UFC/g.
